From ChEMBL document CHEMBL3885881, “DrugMatrix”

Assays:
[1] = species on record: Rattus norvegicus; test: DrugMatrix - Regimen: Daily Repeat; assay type: toxicity, organism-based, Sprague-Dawley; parameters: regimen Daily Repeat, gender Male, age 6-8 weeks; settings: in vivo, sc, route mini-PUMP - SUBCUTANEOUS, vehicle 100 % SALINE
[2] = species on record: Rattus norvegicus; assay type: toxicity, organism-based, Sprague-Dawley; settings: in vivo, sc, 24 h, tissue Blood, route mini-PUMP - SUBCUTANEOUS, time 1 day, vehicle 100 % SALINE

CNCC(O)c1ccc(O)c(O)c1 (stereo unspecified) [RACEPINEPHRINE]
MONOCYTE ([1]; 0 mg/kg, 120 h, tissue Blood, dose level Control, time 5 day): 1.83% | NEUTROPHIL ([1]; 0 mg/kg, […], tissue Blood, dose level Control, time 14 day): 16.5% | HEMATOCRIT ([1]; […], 72 h, tissue Blood, dose 0.77 mg/Kg, dose level High, time 3 day): 37.5% | URIC ACID ([1]; […], 120 h, tissue Plasma, dose 0.77 mg/Kg, dose level High, time 5 day): 1.57 mg/dL | MONOCYTE ([2]; 0 mg/kg, dose level Control): 1.83% | HEMATOCRIT ([2]; […], dose 0.77 mg/Kg, dose level High): 35.5%
